Test [1] deals with T1, PPARα (Homo sapiens, UniProt Q07869).
T1 sequence (Q07869 167-468 limits assumed): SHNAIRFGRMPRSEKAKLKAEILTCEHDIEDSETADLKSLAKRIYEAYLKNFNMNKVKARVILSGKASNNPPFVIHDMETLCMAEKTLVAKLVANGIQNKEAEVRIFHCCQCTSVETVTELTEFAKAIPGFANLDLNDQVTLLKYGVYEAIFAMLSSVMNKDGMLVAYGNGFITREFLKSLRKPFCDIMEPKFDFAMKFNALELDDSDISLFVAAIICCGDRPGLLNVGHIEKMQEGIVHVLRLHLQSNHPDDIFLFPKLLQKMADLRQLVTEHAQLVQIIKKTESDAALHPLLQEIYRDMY
The experiment in a line: Radioligand binding assay, GST-PPARα-LBD fusion protein. Details: PPARα (aa 167 to 469). The source says: (§1) Full-length cDNA clones for human PPARα and mouse PPARγ were obtained by RT-PCR from human adipose and mouse liver cRNA, respectively, cloned into plasmid vectors and verified by DNA sequencing. […] To accomplish this, the portions of the cloned sequences encoding the LBDs were amplified from the full-length clones by PCR and then subcloned into the plasmid vectors. Final clones were verified by DNA sequence analysis.
Induction, expression, and purification of GST-LBD fusion proteins were performed in E. coli strain BL21 (pLysS) cells by standard methods (Ref: Current Protocols in Molecular Biology, Wiley Press, edited by Ausubel et al.).
Radioligand Binding Assay
PPARα receptor binding was assayed in TKE10 (10 mM Tris-HCl, pH 8, 50 mM KCl, 2 mM EDTA, 0.1 mg/ml fatty acid free BSA and 10 mM DTT). […]
PPARγ receptor binding was assayed in TKE50 (50 mM Tris-HCl, pH 8, 50 mM KCl, 2 mM EDTA, 0.1 mg/ml fatty acid-free BSA and 10 mM DTT). […] All binding assays were performed in 96 well plates and the amount of bound ligand measured on a Packard TopCount using OptiPlates (Packard). Nonspecific binding was determined in the presence of 10^−4 M unlabelled compound. […]

In test [2] the target is T1, PPARα. The experiment in a line: Luciferase transcriptional reporter gene assay, BHK21 cells transfected with pFA-PPARα-LBD. It counts as cell-based. Details: PPARα (aa 167 to 469); expressed in transfected cells; host or cells: BHK21 (ATCC CCL10). The conditions noted are these: Gal4-PPARα-LBD.
Description: as §1
Luciferase Transcriptional Reporter Gene Assays
Baby hamster kidney cells (BHK21 ATCC CCL10) were grown in DMEM medium containing 10% FBS at 37° C. in a 95%02:5%CO2 atmosphere. […] Following incubation of the cells for 24 hours with substances, 50 ul of the supernatant was recovered and analyzed for SEAP activity (Roche Molecular Biochemicals). […] Luminescence for both SEAP and luciferase was measured in a Packard TopCount. Luciferase activity was normalized to the SEAP control and transcriptional activation in the presence of a test substance was expressed as fold-activation over cells incubated in the absence of the substance. EC50 values were calculated using the XLfit program (ID Business Solutions Ltd. UK).

In the case of `CN(CCOc1ccc(CC2SC(=O)NC2=O)cc1)c1ccccn1` (centres unmarked) [Rosiglitazone, reference compound], the “PPARα IC50” value in test [1] is “inactive”. Moreover, the “PPARα EC50” value in test [2] was “inactive”.

The record behind these values is US7109225B2, “Substituted oxazole derivatives” (Hofmann-la Roche Inc., priority 2002, dated 2006).
